scFv variants of Ab-14 (light chain) against a SARS-CoV-2 spike peptide

Target: peptide PDVDLGDISGINAS, taken from heptad repeat 2 (HR2) of SARS-CoV-2 spike.

Each scFv is VH, the linker GGGGSGGGGSGGGGS, VL, as in the parent Ab-14, and differs from it in the CDRs of the light chain only.
VH: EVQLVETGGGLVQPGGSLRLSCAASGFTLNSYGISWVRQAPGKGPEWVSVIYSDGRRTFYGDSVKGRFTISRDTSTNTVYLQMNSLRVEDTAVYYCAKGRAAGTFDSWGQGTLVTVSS
VL: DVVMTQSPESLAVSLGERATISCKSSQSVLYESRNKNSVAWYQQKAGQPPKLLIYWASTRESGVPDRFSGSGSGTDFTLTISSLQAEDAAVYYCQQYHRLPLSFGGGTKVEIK

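The variants were designed computationally from a first round of random CDR variants and then made and measured. Group labels follow the data file (Ctrl: baseline library sampled from a position-specific scoring matrix, with some repeated check sequences; En: ensemble of fine-tuned language models; GP: Gaussian process model; HC: hill climbing; Gen: genetic algorithm; Gibbs: Gibbs sampling; a sequence that several methods proposed may carry one label only). The assay is AlphaSeq: two haploid yeast populations carry antibody and antigen on their surface. Binding brings cells together so that they mate, and sequencing counts the barcode pairs among the diploids. Read counts were normalised to the haploid input and turned into Kd by a linear fit to BCL2-family pairs of known affinity, for each replicate. Each pool was mated in six replicate cultures.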

Each variant is given by its three light chain CDRs, as the data file delimits them; those of the parent are KSSQSVLYESRNKNSVA, WASTRES, QQYHRLPLS.
Variants here have more than six changes.
Values are apparent Kd, the geometric mean of the replicates that gave a signal; lower means stronger binding.
"no signal" marks a missing value. The strain was present, yet no cells mated with the target were sequenced in any replicate, which points to weak or no binding.
Values of this round are not directly comparable with the first-round values of the same sequences.
Nonspecific signal, from three strains lacking the peptide, appeared in 4% of pairings of all light chain designs, centred on 430 nM (5% of these signals below 38 nM); values are not corrected for it.
The parent sequence was in this pool as ten entries: three were never detected, three once, and four in most replicates, with averages from 2.2 nM to 240 nM.
The authors averaged sequences with at least three values out of six and counted those with two or fewer as poor binders.

For TIGASLRYGSRNRSNVA / EVSQRLN / QQYDRLPLA [En_Gen], the assay gave 31 nM (6 of 6 replicates). For KIGMTLNQLYEKKNNVA / DLVERVN / QQYHRLPLS [En_Gen], the assay gave 2.2 nM (6 of 6 replicates). The variant QIEFEDVQYTANEQAVA / EMNQRMQ / QQYFHLPLG [En_Gibbs] gave no signal (0 of 6 replicates). The variant MMSQVTGLGQRHRNNVA / QTSTREP / QQYDRLPLV [En_Gen] gave 14 nM (6 of 6 replicates). The variant RLSNHVYDRQGIQNSVA / QDAERAV / QSYDRLPLS [En_Gibbs] gave no signal (0 of 6 replicates). The variant KLTMISGLEKVSTNNVA / EMETREK / QQYNRLPLS [En_Gen] showed 3.9 nM (6 of 6 replicates). With KSSGSVLSPSHNKNSVA / RASTRES / QQFHRLPLA [Ctrl] the result was no signal (0 of 6 replicates). The variant KLQQSVEYESRLANSVA / NASTRLE / QQYHRLPLS [GP_Gibbs] gave 2.0 nM (6 of 6 replicates). With TLMHHQDYQGEIKKSIA / NAIIKER / QQYSRLPLA [En_Gibbs] the result was 1.7 nM (6 of 6 replicates).

The variant MFSQLFMYGSRNYNSVA / QASTREK / QQYDRLPLI [En_HC] showed 35 nM (3 of 6 replicates). The variant IVSQLMLWGWHAKNSIA / EAAMRLN / QQYDRLPLF [En_Gen] gave no signal (0 of 6 replicates). The variant HMSMLTLSGMRHTNSVA / QMTTRVN / QQYDRLPLT [En_Gen] showed 2.1 nM (6 of 6 replicates). With MISDLTMYGSRNKNSVA / DLSERGS / QQYHRLPLS [En_HC] the result was 480 pM (6 of 6 replicates). The variant KLANEMYQGSLVQANVA / EAKELWE / QQYGHLPLA [En_Gibbs] showed 5.6 nM (6 of 6 replicates). For KLYDDATSRVQTAENIA / EKTESLQ / QQYHRLPLS [En_Gibbs], the assay gave 23 nM (6 of 6 replicates). The variant TITGMVEEIETRQKNIA / EVEFRCM / QQYSRLPLS [En_Gibbs] gave 170 nM (4 of 6 replicates). The variant KFANQLVYWNQGQNAIA / DVTTKSA / QQYLQLPLM [En_Gibbs] showed 34 nM (6 of 6 replicates). For MMSQVWGMGQRHRNNVA / QTSTREP / QQYDRLPLV [En_Gen], the assay gave 12 nM (6 of 6 replicates).

The variant VISELYNEAIGMRNNVA / NNQTRED / QQYARLPLS [En_Gen] showed 51 nM (6 of 6 replicates). With KLSFSNLYEDRNKNSVA / QASTRLM / QQYHRLPLS [GP_Gibbs] the result was 900 pM (6 of 6 replicates). The variant QIFFNDFQYRIESQNIA / QASLREV / QQYARLPLV [En_Gibbs] gave 9.3 nM (6 of 6 replicates). The variant SISGFMKSLSAHTNSVA / DMTNREN / QQYDRLPLS [En_Gen] showed 3.7 nM (6 of 6 replicates). For KLSMSMRYESENKNSIA / ELVTRMS / QQYHRLPLS [En_HC], the assay gave 9.7 nM (6 of 6 replicates). The variant TLYGLSNSMSINKDSVA / EMTTREK / QQYDRLPLM [En_Gen] showed 490 nM (6 of 6 replicates). For TISQMTSLFSQSINNVA / EVSTREE / QQYDRLPLS [En_Gen], the assay gave 7.1 nM (6 of 6 replicates). The variant KLANVTGTEKVKGNNVA / EMETRER / QQYNRLPLS [En_Gen] showed 1.6 nM (6 of 6 replicates). For KLKYQADQYGMQWNNVA / QADIRAP / QQYNKLPLN [En_Gibbs], the assay gave 4.8 nM (6 of 6 replicates).

For HLGLATMLEETVRNSVA / NNSTRED / QQYDRLPLS [En_Gen], the assay gave 9.2 nM (6 of 6 replicates). The variant KLSIMYQHTSKNKNNIA / ERSTREE / QQYHHLPLS [En_HC] gave 2.0 nM (6 of 6 replicates). The variant QLATEVIDNQKLRNSIA / ENELRAM / QQYLMLPLS [En_Gibbs] showed 4.1 nM (6 of 6 replicates). With QFAGAMYHGGNDNQNIA / DAMTYIK / QQYSRLPLI [En_Gibbs] the result was 42 nM (6 of 6 replicates). The variant MISDMGLHDSRLQNSVA / NNSTREA / QQYHRLPLS [En_HC] gave 23 nM (6 of 6 replicates). With MISDMGLHDSRIRNSVA / NNSTREA / QQYDRLPLS [En_HC] the result was 1.5 nM (6 of 6 replicates). With MFSQLMEYGSRYKNSVA / QASTRED / QQYHWLPLS [En_HC] the result was 33 nM (6 of 6 replicates). With QLSMVTGHMSVSKNNVA / EMETRVN / QQYDRLPLS [En_Gen] the result was 4.2 nM (6 of 6 replicates). With MLTMFANENQGWSNNIA / DTNNLNE / QQYSRLPFM [En_Gibbs] the result was 11 nM (6 of 6 replicates).

For KQSQSVPMGERNKNSVA / MASYRES / QQYHRLPLS [GP_Gibbs], the assay gave 32 nM (6 of 6 replicates). The variant KLPQSEPYEERCFNSVA / NASTRES / QQYHRLPLS [GP_Gibbs] showed 15 nM (6 of 6 replicates). The variant MMSMGYLGGMRAKNNVA / QEETREE / QQYHRLPLI [En_HC] showed 11 nM (6 of 6 replicates). The variant KVSQLELYESRNANNVA / NASTREN / QQYHRLPLS [GP_Gibbs] gave 1.5 nM (6 of 6 replicates). The variant KLPQWDLYEGRNKNSVA / NASTRFD / QQYHRLPLS [GP_Gibbs] gave 870 pM (6 of 6 replicates). The variant KLYSMTGIESHAKNSLA / DANRRED / QQYHRLPLS [En_HC] showed 2.0 nM (6 of 6 replicates). The variant KLSYSVEYQDRNKNSVA / QASQRNS / QQYHRLPLS [GP_Gibbs] gave 1.2 nM (6 of 6 replicates). With ILLQVTTEHGAALNNIA / EGARRND / QQYARLPLV [En_Gibbs] the result was 23 nM (6 of 6 replicates). For MLSDSVKMESRNTNSVA / DNSTRGS / QQYDRLPLS [En_HC], the assay gave 200 nM (2 of 6 replicates).

Excerpt, the first 3 entries:

CDR-L1,CDR-L2,CDR-L3,group,apparent Kd,replicates with signal
TIGASLRYGSRNRSNVA,EVSQRLN,QQYDRLPLA,En_Gen,31 nM,6/6
KIGMTLNQLYEKKNNVA,DLVERVN,QQYHRLPLS,En_Gen,2.2 nM,6/6
QIEFEDVQYTANEQAVA,EMNQRMQ,QQYFHLPLG,En_Gibbs,no signal,0/6

Values reported by Li et al. 2023, doi:10.1038/s41467-023-39022-2 (FLAb copy).